Assays:
[1] = RNA integrity in RNA lipoplexes, accelerated storage at 25° C.; details: 10% sucrose, 6.45 mM NaCl, liposomes with 5 mM acetic acid
Protocol: RNA lipoplexes are incubated under accelerated conditions (25° C.) in the presence of an exemplarily cryoprotectant. RNA integrity was analyzed by capillary electrophoresis over 60 days. Additionally, RNA lipoplexes are incubated under at the anticipated storage conditions (−15° C.) in the presence of an exemplarily cryoprotectant for up to two years. RNA integrity was analyzed by capillary electrophoresis.
The respective RNA lipoplexes were investigated under accelerated conditions (25° C.) and in the frozen state (−15° C.).
RNA lipoplexes were formed with liposomes containing 2 mM of acetic acid. The respective RNA lipoplexes were investigated under accelerated conditions (25° C.) and in the frozen state (−15° C.).
Method: All RNA lipoplexes were automatically prepared in a single batch and the different concentrations of HEPES were adjusted by the addition of a cryoprotectant solution containing different amounts of HEPES. Particle sizes and polydispersity of RNA lipolexes were analyzed by photon correlation spectroscopy (PCS) measurements. Additionally, the RNA integrity was analyzed by capillary electrophoresis and the pH was measured. […]
The integrity of the RNA was analyzed using a 48 capillary Fragment Analyzer Automated System by Advanced Analytical (AATI) according to the manufacturers instructions. Results were analyzed via PROSize 2.0 version 2.0.051 data analysis software. […]

[2] = RNA integrity in RNA lipoplexes at 40° C. (capillary electrophoresis); details: 21 days, no cryoprotectant

- stability of the RNA in RNA lipoplexes by buffer system [1]: lower stability
- stabilization of the RNA (RNA integrity) by buffering system [2]: comparable results
Substance: acetic acid/sodium acetate
